Measurements from patent US8906844B2 (SYNTONIX PHARMACEUTICALS, dated 2014).

Amino acid sequences for entries named in this document (tags omitted). Residues count along the entry.
UniProt P55899, 24-297: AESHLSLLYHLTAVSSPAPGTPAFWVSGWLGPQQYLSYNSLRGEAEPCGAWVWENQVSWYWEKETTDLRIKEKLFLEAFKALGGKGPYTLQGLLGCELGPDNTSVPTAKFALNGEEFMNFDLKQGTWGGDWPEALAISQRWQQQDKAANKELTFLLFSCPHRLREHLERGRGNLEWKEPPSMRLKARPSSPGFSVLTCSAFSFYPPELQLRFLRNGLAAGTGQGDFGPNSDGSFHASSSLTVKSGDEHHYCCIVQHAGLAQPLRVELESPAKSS

biological target: T1, soluble human FcRn (Homo sapiens, UniProt P55899); assay: Equilibrium binding constants (KD) by surface plasmon resonance (Biacore); conditions: pH 6; read-out: KD (pH 6)
T1 construct: made in house; host or cells: Chinese hamster ovary (CHO) cells, glutamine synthetase expression system
Method: The following steps were performed to cross-link soluble human or cynomolgus FcRn to the dextran surface of a CM5 sensor chip (Biacore AB, Uppsala, Sweden) by an amine coupling reaction involving 1-ethyl-(3-dimethylaminopropyl)-carbodiimide hydrochloride (EDC) (Biacore AB, Uppsala, Sweden) and N-hydroxysuccinimide (NHS) (Biacore AB, Uppsala, Sweden) as recommended by Biacore (BIAapplications Handbook, version AB, section 4.2, Biacore AB, Uppsala, Sweden). The FcRn protein was diluted in 50 mM sodium acetate, pH 4.5 (Biacore AB, Uppsala, Sweden) to a concentration of 10 to 30 μg/ml and used to coat one flow cell on the sensor chip. Residual sites on the FcRn flow cell were blocked with 1 M ethanolamine hydrochloride pH 8.5 (Biacore AB, Uppsala, Sweden). A control flow cell was blocked with ethanolamine for reference subtraction. For analysis of the monomeric peptides, FcRn was coated to a final density of 4000-5000 response units (RU). For analysis of the peptide dimers, FcRn was coated to a density of 2000-2500 RU. All SPR measurements were performed using a BIACORE 3000 Instrument (Biacore AB Uppsala, Sweden). For measurements done at either pH 6 or pH 7.4, experiments were performed in 50 mM phosphate, 100 mM sodium chloride, 0.01% surfactant P20 (Biacore AB, Uppsala, Sweden).
Ten 2-fold dilutions of the peptide were injected over the FcRn-CM5 chip at a rate of 20 μl/min for 2 min. The peptide was dissociated from the chip for 2.5 minutes with buffer. Any remaining peptide was removed from the chip with a 30 second injection of HBS-P buffer (Biacore AB, Uppsala, Sweden) at a rate of 30 μl/min. Sensorgrams were generated and analyzed using BiaEval software version 3.1 (Biacore AB, Uppsala, Sweden). The equilibrium RU observed for each injection was plotted against concentration. The equilibrium KD values were derived by analysis of the plots using the steady state affinity model included in the BiaEval software.
Ten, 2-fold dilutions of the peptide were injected over the FcRn-CM5 chip at a rate of 30 μl/min for 10 min. Peptides were dissociated from the chip for 10 minutes with buffer. Any remaining peptide was removed from the chip with two, 60 second injections of a solution containing 50 mM Tris-hydrochloride, 100 mM NaCl, 0.01% surfactant P20 pH 9.0 at 100 μl/min.
Sensorgrams were generated and analyzed using BiaEval software version 3.1 (Biacore AB, Uppsala, Sweden). The equilibrium RU observed for each injection was plotted against concentration. The equilibrium KD values were derived by analysis of the plots using the steady state affinity model included in the BiaEval software.

| Substance | Kd |
| --- | --- |
| QRF-Asp-TGHFGGLY-Lys-NGP [Peptide No. 107] | > 250 µM |
| QRF-Asp-TGHFGGLYP-Orn-NGP [Peptide No. 85] | 2.7 µM |
| QRF-Pen-TG-Dap-FGGLYPCNGP [Peptide No. 109] | > 100 µM |
| QRF-Pen-TGH-(Tic)-GGLYPCNGP [Peptide No. 103] | > 250 µM |
| QRF-Pen-TGH-(phenylGly)-GGLYPCNGP [Peptide No. 102] | > 250 µM |
| QRFCTG-Dab-FGGLYPCNGP [Peptide No. 36] | 211 µM |
| QRFCTGHF-Apa-LYPCNGP [Peptide No. 35] | 220 µM |
| RF-Pen-TG-(3-PiperidyalAla)-FG-Sar-NMeLeu-YPC [Peptide No. 263] | 0.66 µM |

same assay, conditions: pH 7.4; read-out: KD pH 7.4

| Substance | Kd |
| --- | --- |
| RF-Pen-TG-(3-PiperidyalAla)-FG-Sar-NMeLeu-YPC [Peptide No. 263] | 0.86 µM |

biological target: T2, soluble human FcRn (shFcRn) (Homo sapiens, UniProt P55899); assay: not given; type: binding; conditions: IgG competition ELISA, 3 nM human IgG, buffer pH 6
T2 construct: made in house; host or cells: Chinese hamster ovary (CHO) cells, glutamine synthetase expression system

| Substance | IC50 |
| --- | --- |
| F-Asp-TGHFGGLYP-Lys-NGP [Peptide No. 124] | 22 µM |
| F-Pen-TGHFGpLYPCNGP [Peptide No. 145] | 3.1 µM |
| RF-Pen-TG-(3-PiperidyalAla)-FG-Sar-NMeLeu-YPC [Peptide No. 263] | 6.3 µM |
